Reference: article PMC6928721, “Evaluation of the Reactivity and Receptor Competition of HLA-G Isoforms toward Available Antibodies: Implications of Structural Characteristics of HLA-G Isoforms” (International Journal of Molecular Sciences, 2019)

Assays:
[1] = target: T1, disulfide-linked HLA-G1 homodimer (ectodomain: heavy chain α1-α2-α3 domains, β2m and peptide …) (human | ); assay: SPR; Biacore T200; G233 immobilised on a CM5 chip, HLA-G1 dimer captured on it, 0.8-12.5 µM LILRB1 injected; equilibrium binding analysis, one to one Langmuir fit; conditions: both partners purified
[2] = target: T1, disulfide-linked HLA-G1 homodimer …; assay: SPR; Biacore T200; MEM-G9 immobilised on a CM5 chip, HLA-G1 dimer captured on it, 0.8-12.5 µM LILRB1 injected; equilibrium binding analysis, one to one Langmuir fit; conditions: both partners purified

Kd [1]: 2.5 µM | Kd [2]: 1.5 µM
B1: LILRB1 (leukocyte immunoglobulin-like receptor B1), N-terminal domains 1 and 2 of the extracellular domain (domain or fragment)
chain: GHLPKPTLWAEPGSVITQGSPVTLRCQGGQETQEYRLYREKKTALWITRIPQELVKKGQFPIPSITWEHAGRYRCYYGSDTAGRSESSDPLELVVTGAYIKPTLSAQPSPVVNSGGNVILQCDSQVAFDGFSLCKEGEDEHPQCLNSQPHARGSSRAIFSVGPVSPSRRWWYRCYAYDSNSPYEWSLPSDLLELLVLG
